AlphaSeq binding of Ab-14 light chain variants to a spike HR2 peptide

Data: MIT Lincoln Laboratory AlphaSeq set, Li et al. 2023, doi:10.1038/s41467-023-39022-2, as distributed in FLAb.

Binding partner: SARS-CoV-2 spike HR2 peptide, sequence PDVDLGDISGINAS.

Ab-14 is the parent antibody, in scFv form: VH, then a 15-residue (Gly4Ser)3 linker, then VL. The heavy chain is unchanged in all variants.
VH: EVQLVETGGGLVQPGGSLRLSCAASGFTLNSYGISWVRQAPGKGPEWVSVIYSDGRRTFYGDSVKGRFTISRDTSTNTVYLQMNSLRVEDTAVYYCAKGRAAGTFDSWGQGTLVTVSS
VL: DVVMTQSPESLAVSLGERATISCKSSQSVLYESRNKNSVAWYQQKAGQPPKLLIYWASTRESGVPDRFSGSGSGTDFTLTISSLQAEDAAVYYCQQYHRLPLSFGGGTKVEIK

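The starting antibody came from a phage panning campaign against this peptide. The variants were designed computationally from a first round of random CDR variants and then made and measured. Group labels follow the data file (Ctrl: baseline library sampled from a position-specific scoring matrix, with some repeated check sequences; Rand: our label for a block that the file lists under HC and that is probably the random mutants of the ten best first-round binders; GP: Gaussian process model; HC: hill climbing; Gen: genetic algorithm; a sequence that several methods proposed may carry one label only). The assay is AlphaSeq: two haploid yeast populations carry antibody and antigen on their surface. After mating in shaken culture at 30 °C for 16 h, diploids were selected and their barcode pairs sequenced. A regression on co-assayed BCL2-family reference pairs converts the normalised counts of each replicate to an apparent Kd. Mating was done six times.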

The whole VL of each variant is written out. Variants here have at most six changes. Scale: log10 of Kd in nM, estimated from mating counts; low values are strong binders. Replicates are averaged; those with no signal do not enter the mean. An entry "no signal" has no value in the source: the pair was not observed among the diploids in any replicate. This suggests poor binding but is not conclusive. The list is sorted by this average, lowest first, undetected variants last. The authors' rule: three or more of the six replicates give a measured affinity, fewer mean a poor binder. The parent sequence was in this pool as ten entries: three were never detected, three once, and four in most replicates, with averages from 0.34 to 2.37. Nonspecific signal, from three strains lacking the peptide, appeared in 4% of pairings of all light chain designs, centred on 2.64 (5% of these signals below 1.59); values are not corrected for it. A sequence measured in both rounds can read differently, since the two assays cover different ranges.

Variant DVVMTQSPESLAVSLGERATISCKVQQSVLYESRNKNSVAWYQQKAGQPPKLLIYNASQRESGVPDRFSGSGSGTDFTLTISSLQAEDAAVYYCQQYHRLPLSFGGGTKVEIK [GP_Gen] gave -0.17 (6 of 6 replicates). Variant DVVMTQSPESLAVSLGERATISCKFSQSFLYESRNKNSVAWYQQKAGQPPKLLIYNASQRESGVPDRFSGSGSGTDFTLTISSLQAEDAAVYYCQQYHRLPLSFGGGTKVEIK [GP_Gen] gave -0.16 (6 of 6 replicates). For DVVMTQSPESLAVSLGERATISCKMEQGDLYESRNKNSVAWYQQKAGQPPKLLIYGASTRESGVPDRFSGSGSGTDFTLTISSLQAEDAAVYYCQQYHRLPLSFGGGTKVEIK [GP_HC], the assay gave -0.15 (6 of 6 replicates). Variant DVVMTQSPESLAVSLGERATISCKLSQSELYESRAKNSVAWYQQKAGQPPKLLIYNASTRESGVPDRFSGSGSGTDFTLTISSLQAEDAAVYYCQQYHRLPLSFGGGTKVEIK [GP_Gen] showed -0.07 (6 of 6 replicates). For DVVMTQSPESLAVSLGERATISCKVSQSVLYESRVKNSVAWYQQKAGQPPKLLIYDASTRESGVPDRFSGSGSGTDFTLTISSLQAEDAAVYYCQQYHRLPLSFGGGTKVEIK [GP_Gen], the assay gave -0.05 (6 of 6 replicates). For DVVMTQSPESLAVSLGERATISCKLPQSHLYESRNKNSVAWYQQKAGQPPKLLIYQASTRESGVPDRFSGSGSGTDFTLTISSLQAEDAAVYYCQQYHRLPLSFGGGTKVEIK [GP_Gen], the assay gave 0.08 (6 of 6 replicates). For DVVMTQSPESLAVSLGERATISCKVSQSVLYESRNKNSVAWYQQKAGQPPKLLIYDGSTRESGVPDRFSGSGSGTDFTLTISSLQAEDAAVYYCQQYHRLPLSFGGGTKVEIK [GP_Gen], the assay gave 0.10 (6 of 6 replicates).

Variant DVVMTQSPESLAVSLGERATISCKAQQSVLYESRNKNNVAWYQQKAGQPPKLLIYHASTREDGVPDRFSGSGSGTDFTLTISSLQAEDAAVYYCQQYHRLPLSFGGGTKVEIK [GP_HC] gave 0.28 (6 of 6 replicates). Variant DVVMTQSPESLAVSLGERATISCDSSQSVLYESRNKNSIAWYQQKAGQPPKLLIYGASTRESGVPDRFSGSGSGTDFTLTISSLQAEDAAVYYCQQYHRLPLSFGGGTKVEIK [Ctrl] gave 0.42 (6 of 6 replicates). With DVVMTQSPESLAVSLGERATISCKYSISVLYESRNKNSVAWYQQKAGQPPKLLIYQAVTRESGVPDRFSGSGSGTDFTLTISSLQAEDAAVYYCQQYHRLPLSFGGGTKVEIK [Ctrl] the result was 0.84 (6 of 6 replicates). Variant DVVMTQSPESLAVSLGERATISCKSSQSVLYESTNSNSVAWYQQKAGQPPKLLIYQASTRESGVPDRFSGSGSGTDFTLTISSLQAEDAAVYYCQQYHVLPLSFGGGTKVEIK [Ctrl] showed 0.94 (6 of 6 replicates). With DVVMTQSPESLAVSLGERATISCKSSQSVVYEIRNENSVAWYQQKAGQPPKLLIYWASTRESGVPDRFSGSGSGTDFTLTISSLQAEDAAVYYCQQYHRLPLSFGGGTKVEIK [Ctrl] the result was 1.30 (6 of 6 replicates). Variant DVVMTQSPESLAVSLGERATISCKSSQKYLYESRNKNSVAWYQQKAGQPPKLLIYGASTRESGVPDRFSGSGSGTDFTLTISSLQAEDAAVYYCQQYHRLPLSFGGGTKVEIK [GP_HC] showed 1.52 (6 of 6 replicates). Variant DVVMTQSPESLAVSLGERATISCKSSQSPDNEERNKNSVAWYQQKAGQPPKLLIYWASTRESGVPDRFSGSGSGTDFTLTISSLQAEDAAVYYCQQYHRLPLSFGGGTKVEIK [Ctrl] showed 1.58 (1 of 6 replicates).

Variant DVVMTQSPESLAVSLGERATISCKSSNSVLYESRNKNSVAWYQQKAGQPPKLLIYWASTRESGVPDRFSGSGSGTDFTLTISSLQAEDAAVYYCQQYHRLPLSFGGGTKVEIK [Ctrl] gave 2.11 (6 of 6 replicates). Variant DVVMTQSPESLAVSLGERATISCKSPPSVLYNSRNKNSVAWYQQKAGQPPKLLIYWASTREIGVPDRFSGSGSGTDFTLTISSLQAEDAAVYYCQQYHRLPLSFGGGTKVEIK [Ctrl] showed 2.28 (5 of 6 replicates). Variant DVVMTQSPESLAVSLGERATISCKSSQSVLYYSRNKNSVAWYQQKAGQPPKLLIYSASTRESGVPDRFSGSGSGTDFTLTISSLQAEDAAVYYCTQYTRLPLSFGGGTKVEIK [Ctrl] showed 3.50 (2 of 6 replicates). For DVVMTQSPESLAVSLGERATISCKLRQSTLYESRNKNSYAWYQQKAGQPPKLLIYWASTRESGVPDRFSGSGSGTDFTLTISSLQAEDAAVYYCQQYHRLALSFGGGTKVEIK [Rand], the assay gave no signal (0 of 6 replicates). Variant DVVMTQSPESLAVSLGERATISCKSSQMVLYESRNKNSVAWYQQKAGQPPKLLIYWATTRESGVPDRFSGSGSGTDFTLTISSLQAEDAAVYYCQQYHRLPLSFGGGTKVEIK [Ctrl] showed no signal (0 of 6 replicates). Variant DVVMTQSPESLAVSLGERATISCKSQQSVLYESRNKNSVAWYQQKAGQPPKLLIYFASTRESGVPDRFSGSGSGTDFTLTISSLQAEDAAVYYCQQYHRVPLSFGGGTKVEIK [Ctrl] gave no signal (0 of 6 replicates).

From the list, the first 2 with no signal in any replicate:

The variant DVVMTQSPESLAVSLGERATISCKLRQSTLYESRNKNSYAWYQQKAGQPPKLLIYWASTRESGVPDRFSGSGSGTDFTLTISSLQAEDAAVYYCQQYHRLALSFGGGTKVEIK [Rand] gave no signal (0 of 6 replicates).
The variant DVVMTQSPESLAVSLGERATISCKSSQMVLYESRNKNSVAWYQQKAGQPPKLLIYWATTRESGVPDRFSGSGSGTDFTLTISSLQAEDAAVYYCQQYHRLPLSFGGGTKVEIK [Ctrl] gave no signal (0 of 6 replicates).